The text below walks through data of PubChem BioAssay (NCATS).

Values joined by “and” are separate entries in the source; they are usually repeats but may differ in a detail not shown here. Equal values may be shown once. Only a part is listed here, and it is no random draw. Inconclusive results are not listed. Active and inactive are the calls of the source. Calls follow the shape of the dose curve; as a rule, active = well fitted inhibition curve with a large enough effect in the signal ratio, with a control signal flat (not every such curve was filed as active); inconclusive = small, poorly fitted or top-dose-only effect, or effect the other way, or a change in a side signal; inactive = no such curve, though single readings can be large or run the other way; the % refers to the signal ratio.
% is scaled to controls: 0 for no effect and ±100 for the full control effect.

In the assay the target is Retinoic acid receptor RXR-alpha (Homo sapiens) (UniProt P19793). Kind of assay: qHTS assay for small molecule antagonists of retinoid X receptor alpha signaling (AID 588546). The conditions noted are these: HEK293T RXRa-UAS-bla, beta-lactamase ratio, antagonist mode. An excerpt: NIH Chemical Genomics Center [NCGC] U.S. Environmental Protection Agency [EPA] National Institutes of Environmental Health Sciences [NIEHS] National Toxicology Program [NTP] NCGC Assay Overview The Retinoid X receptor (RXR), a nuclear hormone receptor is expressed in liver, spleen, placenta, epidermis, central nervous system. These receptors are able to form homo and heterodimers with other nuclear receptors and due to this heterodimerizing ability, RXR functions as master regulators producing diverse physiological effects. Three subtypes of RXR exist; alpha, beta and gamma. Retinoid X receptor alpha (RXR-alpha) has potential roles in metabolic signaling pathways, skin alopecia, dermal cysts, cardiac development, insulin sensitization etc. Therefore screening environmental chemicals on RXR-alpha signaling can be used for the studies focused on such therapeutic applications.
NCGC Assay Protocol Summary Using a beta-lactamase reporter-gene under control of Retinoid X receptor--alpha (RXR-alpha) response element, a cell-based assay [GeneBLAzer (RXR-alpha -UAS-bla assay developed by Invitrogen] was used to measure RXR-alpha ligands signaling. GeneBLAzer RXR-alpha -UAS-bla HEK293T cells were used with assay medium containing 2% charcoal-stripped FBS. The assay was performed in clear bottom black Greiner 1536-well plates. Library compounds were measured for their ability to inhibit the reporter gene activity. Compounds were screened in a titration series in 1536-well format. The fluorescence intensity (405 nm excitation, 460/530 nm emission) was measured using an EnVision plate reader. Data was normalized relative to 9-cis-retinoic acid control (500 nM, 100%), and DMSO only wells (basal, 0%). Concentration-response titration points for each compound were fitted to the Hill equation yielding concentrations of half-maximal inhibition (IC50) and maximal response (efficacy) values. qHTS protocol for RXR-alpha beta-lactamase assay in antagonist mode [Step] [Parameter] [Value] [Description] 1. Reagent; 5 uL; 2500 cells/well 2. Incubation; 37 C for 4 hrs 3. Compounds; 23 nL; 0.59 nM to 92 uM 4. Controls (DMSO); 23 nL 5. Agonist (Stimulator); 1uL; 9-cis-retinoic acid at 500 nM and 100 nM final concentrations 6. Incubation; 37 C for 18 hrs 7. Detection reagent; 1 uL of CCF4-dye 8. Incubation; RT for 2 hrs 9. Detection; Fluorescence; Envision plate reader
Background: Quantitative high-throughput screening tests each substance at several concentrations.
As for `Cc1ccc([N+](=O)[O-])cc1[N+](=O)[O-]`, the max response is inactive: 5.79% and inactive: 7.77%.

For `[NH4+].[O-][Cl+3]([O-])([O-])[O-]`, the max response was inactive: 3.9%.

As to `CCC(C)(OO)OOC(C)(CC)OO` (stereo not given), the max response is inactive: 4.29% and inactive: 1.38%.

Turning to `Cc1ccc([N+](=O)[O-])c([N+](=O)[O-])c1`, the max response is inactive: -5.7% and inactive: 3.82%.

For `CCOP(=O)(CC)OCC`, the max response was inactive: 2.97%.

For `Cc1cccc([N+](=O)[O-])c1[N+](=O)[O-]`, the max response is inactive: -3.22% and inactive: 4.15%.

On to `CCOP(=S)(CC)Oc1cc(Cl)c(Cl)cc1Cl` (stereo not given), for which the max response was inactive: 3.45%.

Turning to `Cc1c([N+](=O)[O-])cccc1[N+](=O)[O-]`, the max response was inactive: 14.9% and inactive: -2.96%.

For the compound `O=[N+]([O-])c1cccc([N+](=O)[O-])c1`, the max response was inactive: 20.7% and inactive: 5.36%.

Regarding `O=[N+]([O-])[O-].[NH4+]`, the max response was inactive: 2.29%.
